Experimental findings from ChEMBL document CHEMBL5705895, “Species comparison and pharmacological characterization of human, monkey, rat, and mouse TRPA1 channels” (J Pharmacol Exp Ther, 2012) are described below.

Protein sequences, listed by entry. Tags and fused reporters are not part of them.
UniProt Q6RI86, whole entry, looked up: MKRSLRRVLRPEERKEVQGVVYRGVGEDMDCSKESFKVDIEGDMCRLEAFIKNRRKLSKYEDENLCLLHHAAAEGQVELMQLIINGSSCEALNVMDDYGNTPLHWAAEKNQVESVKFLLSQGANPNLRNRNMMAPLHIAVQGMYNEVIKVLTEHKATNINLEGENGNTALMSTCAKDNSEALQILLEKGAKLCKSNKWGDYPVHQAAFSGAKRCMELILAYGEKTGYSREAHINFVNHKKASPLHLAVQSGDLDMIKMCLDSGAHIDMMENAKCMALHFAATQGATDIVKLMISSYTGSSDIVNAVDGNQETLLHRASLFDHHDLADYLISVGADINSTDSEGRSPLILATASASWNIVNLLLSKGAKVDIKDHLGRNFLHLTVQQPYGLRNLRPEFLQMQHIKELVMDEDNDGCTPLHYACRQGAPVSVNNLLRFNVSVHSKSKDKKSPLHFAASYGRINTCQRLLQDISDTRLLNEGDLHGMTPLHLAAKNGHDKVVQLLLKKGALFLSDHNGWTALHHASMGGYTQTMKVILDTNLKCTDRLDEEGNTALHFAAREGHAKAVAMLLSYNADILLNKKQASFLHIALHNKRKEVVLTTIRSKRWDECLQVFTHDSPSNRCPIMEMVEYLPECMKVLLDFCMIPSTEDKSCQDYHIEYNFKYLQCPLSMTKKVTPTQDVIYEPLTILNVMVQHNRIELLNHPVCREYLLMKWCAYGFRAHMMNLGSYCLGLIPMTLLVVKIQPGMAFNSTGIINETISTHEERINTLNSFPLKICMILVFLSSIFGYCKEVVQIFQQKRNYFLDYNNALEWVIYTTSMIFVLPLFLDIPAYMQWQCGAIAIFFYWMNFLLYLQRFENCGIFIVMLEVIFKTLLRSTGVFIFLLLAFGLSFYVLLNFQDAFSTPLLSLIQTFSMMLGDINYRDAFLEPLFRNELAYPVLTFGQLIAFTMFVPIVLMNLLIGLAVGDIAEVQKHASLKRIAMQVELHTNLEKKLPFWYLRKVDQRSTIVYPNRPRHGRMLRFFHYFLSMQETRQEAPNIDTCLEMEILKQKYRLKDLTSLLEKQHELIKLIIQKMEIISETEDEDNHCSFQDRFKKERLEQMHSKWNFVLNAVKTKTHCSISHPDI
UniProt O75762, whole entry, looked up: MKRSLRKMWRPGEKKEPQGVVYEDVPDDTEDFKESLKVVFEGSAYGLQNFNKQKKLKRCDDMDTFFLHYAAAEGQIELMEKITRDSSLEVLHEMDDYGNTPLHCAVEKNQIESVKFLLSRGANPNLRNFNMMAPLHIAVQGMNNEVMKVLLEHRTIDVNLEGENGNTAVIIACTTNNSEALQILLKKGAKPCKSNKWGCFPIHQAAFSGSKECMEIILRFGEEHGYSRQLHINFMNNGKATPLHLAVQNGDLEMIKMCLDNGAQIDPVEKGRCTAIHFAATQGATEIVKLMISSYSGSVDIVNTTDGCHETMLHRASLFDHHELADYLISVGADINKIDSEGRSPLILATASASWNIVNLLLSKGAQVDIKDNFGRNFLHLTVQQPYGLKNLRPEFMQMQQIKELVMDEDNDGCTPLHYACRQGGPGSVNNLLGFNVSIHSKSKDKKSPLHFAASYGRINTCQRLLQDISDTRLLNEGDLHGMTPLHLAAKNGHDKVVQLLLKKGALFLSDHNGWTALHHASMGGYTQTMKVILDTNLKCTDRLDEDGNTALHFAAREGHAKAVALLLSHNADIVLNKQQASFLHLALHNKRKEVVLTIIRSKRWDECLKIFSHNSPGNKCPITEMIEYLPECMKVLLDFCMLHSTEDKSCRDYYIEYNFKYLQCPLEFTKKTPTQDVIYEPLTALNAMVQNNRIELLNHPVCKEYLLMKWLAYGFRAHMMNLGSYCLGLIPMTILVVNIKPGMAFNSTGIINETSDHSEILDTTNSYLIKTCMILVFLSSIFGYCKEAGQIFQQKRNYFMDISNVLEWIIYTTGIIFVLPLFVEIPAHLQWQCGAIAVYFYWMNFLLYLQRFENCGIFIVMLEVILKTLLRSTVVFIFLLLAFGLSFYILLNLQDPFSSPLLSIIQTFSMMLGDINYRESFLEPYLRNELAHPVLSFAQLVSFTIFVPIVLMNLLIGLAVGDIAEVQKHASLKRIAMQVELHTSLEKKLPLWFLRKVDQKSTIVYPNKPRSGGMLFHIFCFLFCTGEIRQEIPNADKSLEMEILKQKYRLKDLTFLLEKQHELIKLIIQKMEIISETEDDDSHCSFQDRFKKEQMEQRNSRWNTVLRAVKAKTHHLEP
UniProt Q8BLA8, whole entry, looked up: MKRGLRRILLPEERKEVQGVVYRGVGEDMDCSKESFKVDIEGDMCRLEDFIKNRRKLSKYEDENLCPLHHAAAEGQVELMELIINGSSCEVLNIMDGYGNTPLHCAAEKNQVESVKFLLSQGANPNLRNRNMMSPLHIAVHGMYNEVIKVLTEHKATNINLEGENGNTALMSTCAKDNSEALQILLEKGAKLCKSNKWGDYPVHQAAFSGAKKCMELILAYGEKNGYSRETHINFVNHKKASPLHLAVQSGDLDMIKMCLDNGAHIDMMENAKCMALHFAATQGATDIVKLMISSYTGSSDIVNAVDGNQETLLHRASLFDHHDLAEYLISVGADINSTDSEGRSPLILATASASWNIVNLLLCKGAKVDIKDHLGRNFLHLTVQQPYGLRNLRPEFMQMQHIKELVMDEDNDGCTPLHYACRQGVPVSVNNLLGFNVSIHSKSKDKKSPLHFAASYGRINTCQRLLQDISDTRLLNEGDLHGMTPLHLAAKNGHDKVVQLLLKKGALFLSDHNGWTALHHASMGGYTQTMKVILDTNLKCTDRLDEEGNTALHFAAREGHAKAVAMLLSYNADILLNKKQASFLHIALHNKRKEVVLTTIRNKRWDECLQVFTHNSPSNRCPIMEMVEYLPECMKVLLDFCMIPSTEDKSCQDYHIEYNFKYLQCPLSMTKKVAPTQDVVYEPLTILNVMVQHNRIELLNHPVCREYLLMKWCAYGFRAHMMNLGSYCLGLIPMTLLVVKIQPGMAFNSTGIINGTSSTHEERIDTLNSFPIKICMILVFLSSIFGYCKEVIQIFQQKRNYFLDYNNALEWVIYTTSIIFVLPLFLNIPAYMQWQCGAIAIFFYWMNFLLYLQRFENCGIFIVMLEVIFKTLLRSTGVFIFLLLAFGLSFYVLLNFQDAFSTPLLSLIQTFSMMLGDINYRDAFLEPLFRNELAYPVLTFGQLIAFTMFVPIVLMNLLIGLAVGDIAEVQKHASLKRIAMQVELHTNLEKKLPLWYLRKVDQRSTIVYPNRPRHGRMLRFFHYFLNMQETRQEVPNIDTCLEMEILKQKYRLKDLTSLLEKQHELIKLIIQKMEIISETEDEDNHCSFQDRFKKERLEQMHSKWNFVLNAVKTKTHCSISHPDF

Each structure is given as a SMILES string. The source made the active and inactive calls. The rule behind the calls is not given here.

The term Emax denotes the maximal effect, on the per cent scale that the assay sets.

Assay type in all cases: cell-based
Test [1] has as its target Transient receptor potential cation channel subfamily A member 1 (Rattus norvegicus) (UniProt Q6RI86). The test is described as follows: Agonist activity at full length rat TRPA1 transfected in HEK293F cells assessed as blockade of MO-induced TRPA1 channel activation by measuring Ca2+ influx in presence of 30 uM MO by FLIPR calcium assay. Conditions: filed as agonist.
Test [2] deals with Transient receptor potential cation channel subfamily A member 1 (Macaca mulatta) (UniProt A0A1D5QMT1). As to the kind of experiment: Antagonist activity at rhesus monkey TRPA1 transfected in HEK293F cells assessed as increase in Ca2+ influx by FLIPR calcium assay. As to conditions: filed as antagonist.
Test [3] has as its target Transient receptor potential cation channel subfamily A member 1 (Homo sapiens, UniProt O75762). As to the kind of experiment: Antagonist activity at full length human TRPA1 transfected in HEK293F cells assessed as increase in Ca2+ influx by FLIPR calcium assay. As to conditions: filed as antagonist.
Test [4] deals with Transient receptor potential cation channel subfamily A member 1 (Mus musculus) (UniProt Q8BLA8). As to the kind of experiment: Agonist activity at full length mouse TRPA1 transfected in HEK293F cells assessed as blockade of MO-induced TRPA1 channel activation by measuring Ca2+ influx in presence of 30 uM MO by FLIPR calcium assay. Conditions: filed as agonist.
Test [5] has the same target. As to the kind of experiment: Agonist activity at full length mouse TRPA1 transfected in HEK293F cells assessed as increase in Ca2+ influx by FLIPR calcium assay relative to control. As to conditions: filed as agonist.
The target of test [6] is Transient receptor potential cation channel subfamily A member 1 (Rattus norvegicus) (UniProt Q6RI86). As to the kind of experiment: Agonist activity at full length rat TRPA1 transfected in HEK293F cells assessed as increase in Ca2+ influx by FLIPR calcium assay relative to MO. As to conditions: filed as agonist.

With `Cc1ccc(C(=O)NC(Sc2ccc([N+](=O)[O-])cc2)C(Cl)(Cl)Cl)cc1` (stereo unspecified), the outcome in test [1], in test [2], in test [3] and in test [4] was Active. Moreover, the Emax in test [5] and in test [6] was 77% in each case.
